Measurements taken from US20220401592A1, “LOW MOLECULAR WEIGHT AND POLYAMIDOAMINE (PAMAM) DENDRIMER BASED PSMA-SPECIFIC DUAL CONTRAST AGENTS FOR OPTICAL AND PHOTOACOUSTIC IMAGING AND THERANOSTIC AGENTS FOR TREATING PROSTATE CANCER” (priority 2021, published 2022).

Assay: PA tubing phantom experiment
Conditions: maximum ratio, at 710 nm

Substance	ratio of PA intensity to I in 700-750 nm range
G4(Cy7.5)s(SA-KEU)12(Bdiol)52 [Conjugate V]	up to 203.66%

Assay: Spectrophotometric test (UV-Vis optical absorbance) of conjugates
Conditions: 650-950 nm; same total amount of conjugated Cy7.5 dye

Substance	maximum optical absorbance as % of the maximum optical absorbance of I (779 nm)
G4(NH2)13(Cy7.5)6(Bdiol)45 [Conjugate VI]	26.3%
G4(NH2)20(Cy7.5)2(SA-KEU)10(Bdiol)32 [Conjugate II]	24.4%
G4(Cy7.5)s(SA-KEU)12(Bdiol)52 [Conjugate V]	55.5%
G4(NH2)(Cy7.5)4(SA-KEU)9(Bdiol)30 [Conjugate III]	14.8%
G4(Cy7.5)6(SA-KEU)9(Bdiol)53 [Conjugate IV]	32.3%
